Antibody variant affinities, Ab-14 heavy chain, assay 1

The measurements come from Engelhart et al. 2022 (doi:10.1038/s41597-022-01779-4) through the FLAb antibody collection.

All variants were tested on one target, the spike HR2 peptide PDVDLGDISGINAS (SARS-CoV-2).

Each scFv is VH, the linker GGGGSGGGGSGGGGS, VL, as in the parent Ab-14, and differs from it in the CDRs of the heavy chain only.
VH: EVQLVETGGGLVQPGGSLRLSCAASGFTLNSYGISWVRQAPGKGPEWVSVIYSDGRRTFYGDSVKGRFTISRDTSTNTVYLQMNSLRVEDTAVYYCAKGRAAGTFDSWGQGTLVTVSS
VL: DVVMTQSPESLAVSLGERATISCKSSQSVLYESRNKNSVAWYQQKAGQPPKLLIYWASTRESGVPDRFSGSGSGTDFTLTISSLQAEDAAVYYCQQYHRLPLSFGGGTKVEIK

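The parent was found by panning a naive human phage display library on the peptide. The library (AAYL49) carries one to three amino acid substitutions per variant, with no insertions or deletions. In AlphaSeq, yeast of one mating type display the scFv and yeast of the other type display the target. Pairs that bind mate more often; barcode pairs of the diploids are counted by sequencing. Read counts were normalised to the haploid input and turned into Kd by a linear fit to BCL2-family pairs of known affinity, for each replicate. The assay was run in three technical replicates.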

The parent's heavy chain CDRs are GFTLNSYGIS, VIYSDGRRTFYGDSVK, GRAAGTFDS; each variant's own CDRs replace them letter for letter.
This list gathers variants with a substitution at Y52 (VH, numbered from residue 1).
The Kd shown is the geometric mean over detected replicates; a lower Kd is a better binder.
Where no diploid with the target was found in any replicate, the entry reads "no signal": below detection, most likely a poor binder, though not proof of it.
For reference, the parent read 4.4 nM as the reference entry and 13 µM (one replicate of three) as a member of this library.

The variant GFTLNSYGTS / VICSDGRRTFYGWSVK / GRAAGTFDS showed no signal (0 of 3 replicates).
The variant GETLNSYGIS / VILSDGRRTFYGDSVK / GRAAGTFDS showed 7.0 µM (1 of 3 replicates).
The variant GFTLNSYGIS / VITSDGRRTFYMMSVK / GRAAGTFDS showed no signal (0 of 3 replicates).
The variant GSTLNSYGIC / VINSDGRRTFYGDSVK / GRAAGTFDS showed 8.9 µM (2 of 3 replicates).
The variant GFTLNSYGIS / VIPSDGRRTFYGDSVK / GIAAGTFGS showed no signal (0 of 3 replicates).
The variant GFTLNSYGIS / VITSDGRRTFYGDLVI / GRAAGTFDS showed 110 µM (1 of 3 replicates).
The variant GFTLNSYGIS / VIISSGRCTFYGDSVK / GRAAGTFDS showed no signal (0 of 3 replicates).
The variant GFTLNSYGIS / VIISAGRRTFYMDSVK / GRAAGTFDS showed no signal (0 of 3 replicates).
The variant GFTLNSYGIS / VIKSDGRRTFYGDAVK / GIAAGTFDS showed no signal (0 of 3 replicates).
The variant GFTLNSYGFS / VIRSDGRRTFYGDSVK / GRAAGTDDS showed 33 µM (3 of 3 replicates).
The variant CFTLNSYGIS / VIASDGRRTFYGDPVK / GRAAGTFDS showed no signal (0 of 3 replicates).
The variant GFTLNSYGIS / VIVSDGRWTFYGDSVK / NRAAGTFDS showed no signal (0 of 3 replicates).
The variant GFTLNSYGIS / VISSDGRRTFYIDSVK / GKAAGTFDS showed 77 nM (3 of 3 replicates).
The variant GFTLNSYGIS / VIKSDGRRGFYGDSVK / CRAAGTFDS showed no signal (0 of 3 replicates).
The variant GFTLNSYGIS / VIWSDGRRTFYGDSVK / GRAAGTFGS showed 680 µM (2 of 3 replicates).
The variant GFTLNSYGIS / VIQSDGRRTFYGDSVK / GRALGTFDS showed no signal (0 of 3 replicates).
The variant GFGLNSYGIS / VIESDGRRTFYGDSVK / GRAAGIFDS showed 6.4 µM (1 of 3 replicates).
The variant GFTLNSYGIS / VIRSDGRSTFYGDSVK / GRACGTFDS showed no signal (0 of 3 replicates).
The variant GFTLNSYGQS / VIKSDGRRTFYGDSVK / QRAAGTFDS showed no signal (0 of 3 replicates).
The variant GFTLNSYGIS / VIASDGRRTFYGDSVK / GKAAGTCDS showed no signal (0 of 3 replicates).
The variant GFTLNSYGIS / VACSDGRRTFYGDSVK / GRAAGTFDS showed 4.6 µM (1 of 3 replicates).
The variant GFTLNSYGIS / VIVSDGRDTFYGDSVK / GRAAGTFTS showed no signal (0 of 3 replicates).
The variant GFTLNSYGIS / VIMSDGRRKFYGDSVK / GVAAGTFDS showed no signal (0 of 3 replicates).
The variant GFTLNSYGIS / VIISDGRRTFYGDSVK / VRAAGTFDD showed 190 nM (1 of 3 replicates).
The variant GFTLNSYGIS / VIKSDGRRTFYGDSVK / NRAAGTLDS showed 150 µM (3 of 3 replicates).
The variant GFTLNSYGES / VICSDGRRTFAGDSVK / GRAAGTFDS showed no signal (0 of 3 replicates).
The variant GQTLNSYGIS / VINSDGRRTFYGDSVK / GRVAGTFDS showed 8.7 µM (1 of 3 replicates).
The variant GFTLSSYGIS / VIASDGARTFYGDSVK / GRAAGTFDS showed no signal (0 of 3 replicates).
The variant GFTLNSYGIS / VIWSVGRRTFYGDSVK / GRAAGPFDS showed no signal (0 of 3 replicates).
The variant GFTLNIYGIS / VIGSDGRRTFYGDSVK / GRAAGTFDS showed no signal (0 of 3 replicates).
The variant GFTLNSYGIS / DIISDGRHTFYGDSVK / GRAAGTFDS showed 860 nM (1 of 3 replicates).
The variant GFSLNSYGIS / VIDSDGRRTFYGDSVK / GRVAGTFDS showed no signal (0 of 3 replicates).
The variant GFTLFSTGIS / VIPSDGRRTFYGDSVK / GRAAGTFDS showed no signal (0 of 3 replicates).
The variant GFTLNSYGIS / IIMSDGRRTFYGDSVK / GRAAGTFDS showed 53 µM (2 of 3 replicates).
The variant GFTLNSYGIK / VIPSDGRGTFYGDSVK / GRAAGTFDS showed 730 nM (1 of 3 replicates).
The variant GFTLNSYRIS / VIQSTGRRTFYGDSVK / GRAAGTFDS showed no signal (0 of 3 replicates).
The variant GFTLNSYGIS / VISSDGWRTFNGDSVK / GRAAGTFDS showed no signal (0 of 3 replicates).
The variant GMTLNSYGIS / VICSDGRRTFYGDSVK / GRAAGTFQS showed no signal (0 of 3 replicates).
The variant GFTLNSYGIS / VTHSDGRRTFYGDSVK / GRAAGTFDD showed 4.5 µM (1 of 3 replicates).
The variant GFTLNSYGIS / VFCSDGRRTFYGDSVK / GRAAGTFDS showed no signal (0 of 3 replicates).
The variant GFTLNSDGIS / VIVSDGRRTFYADSVK / GRAAGTFDS showed no signal (0 of 3 replicates).
The variant GFTLNSYGIS / VIFSDGRRTFRGDSVK / GRAAHTFDS showed 11 µM (1 of 3 replicates).

From the list, the first 2 with no signal in any replicate:

CDR-H1	CDR-H2	CDR-H3	apparent Kd	detected
GFTLNSYGTS	VICSDGRRTFYGWSVK	GRAAGTFDS	no signal	0/3
GFTLNSYGIS	VITSDGRRTFYMMSVK	GRAAGTFDS	no signal	0/3

Empty control strains, which show no peptide, gave a signal in 15% of pairings with library AAYL49; the median was 11 µM and 95% of these signals were weaker than 680 nM. No background was subtracted.